From US20070026465A1, “Method for detecting GAD65 autoreactive T cells newly diagnosed type1 diabetic patients and in the prediabetic period” (priority 2005, published 2007)

Tested on: PBMC of newly diagnosed T1D patients
Test: GAD65 HLA class I tetramer staining and flow cytometry of stimulated PBMC, T1D patients
Type: cell-based, human

Question: Which “% of CD3+/CD8+/GAD65 reactive T cells (specificity of the response)” value does the source give for “IL-2: cytokine used at 25 IU/ml for basal stimulation of PBMC [reference compound]” here?
Answer: 1.89%
